## Measured affinities in a library of Ab-95 light chain variants

Binding partner: SARS-CoV-2 spike HR2 peptide, sequence PDVDLGDISGINAS.

Ab-95 is the parent antibody, in scFv form: VH, then the linker GGGGSGGGGSGGGGS, then VL. The heavy chain is unchanged in all variants.
VH: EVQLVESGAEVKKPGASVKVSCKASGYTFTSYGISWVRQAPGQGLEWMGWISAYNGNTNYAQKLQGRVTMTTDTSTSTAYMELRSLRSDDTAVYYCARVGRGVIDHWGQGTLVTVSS
VL: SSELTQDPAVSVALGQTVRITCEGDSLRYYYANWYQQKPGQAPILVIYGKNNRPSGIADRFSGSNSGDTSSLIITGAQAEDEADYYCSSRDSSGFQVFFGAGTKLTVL

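Phage display of a naive human antibody library on the peptide gave the parent. AAYL52 was designed without a model: most single CDR substitutions and a random sample of double and triple ones. In AlphaSeq, yeast of one mating type display the scFv and yeast of the other type display the target. Binding brings cells together so that they mate, and sequencing counts the barcode pairs among the diploids. Read counts were normalised to the haploid input and turned into Kd by a linear fit to BCL2-family pairs of known affinity, for each replicate. Each pool was mated in three replicate cultures.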

Positions count from residue 1 of the parent VL; P54V puts V in place of P.
Numbers give log10(Kd / nM), so 0 is 1 nM and 3 is 1 µM. Smaller is tighter.
An entry "ND" has no value in the source: the pair was not observed among the diploids in that replicate. This suggests poor binding but is not conclusive.
Empty control strains, which show no peptide, gave a signal in 28% of pairings with library AAYL52; the median was 3.91 and 95% of these signals were weaker than 2.90. No background was subtracted. The control count says in how many pairings with the empty strains this scFv gave a signal, with their mean in brackets.

| changes | log10 Kd, replicates | control signals |
|---|---|---|
| P54V/S88K/S92P | 2.19 / 2.41 / 2.89 | 2 of 9 (4.65) |
| Y29K/Y30T/D91K | 2.76 / 2.21 / 1.77 | 0 of 9 |
| P54F/R90T/G94T | ND / ND / ND | 0 of 9 |
| S26Y/K50Y/N51G | 4.58 / 3.20 / 3.48 | 6 of 9 (4.53) |
| D25K/S88D/V97I | 3.21 / 2.96 / 2.53 | 2 of 9 (3.68) |
| D25Q/K50M/Q96G | 3.67 / 4.39 / 2.96 | 4 of 9 (4.13) |
| A32L/K50L/V97M | ND / ND / ND | 1 of 9 (3.64) |
| D25W/S93N/F98P | 4.42 / 3.35 / ND | 3 of 9 (3.75) |
| Y31D/P54A | 0.54 / 0.34 / -0.15 | 2 of 9 (3.15) |
| D25T/G49D/K50G | 2.42 / 2.19 / 2.26 | 6 of 9 (3.71) |
| A32V/P54W/R90V | 3.27 / 3.40 / 3.32 | 0 of 9 |
| L27A/Y31K/P54T | ND / 1.75 / 2.49 | 1 of 9 (2.63) |
| K50R/R53S/V97W | 4.39 / ND / ND | 5 of 9 (3.91) |
| K50C/N51P/F98L | 3.65 / 4.90 / 3.51 | 4 of 9 (4.36) |
| G24A/Y31H/D91P | 3.09 / 4.21 / 4.48 | 4 of 9 (4.17) |
| S26F/N52W/D91R | ND / ND / ND | 1 of 9 (3.07) |
| L27E/Y29C/N51R | 4.38 / ND / ND | 4 of 9 (4.34) |
| L27F/S55R/D91Y | 4.60 / 3.52 / ND | 1 of 9 (4.34) |
| Y29F/S55E | 2.04 / 1.94 / 1.91 | 2 of 9 (4.03) |
| N51E/D91P | ND / ND / ND | 1 of 9 (2.83) |
| S88R/S89P/R90S | 2.40 / 1.99 / 2.67 | 0 of 9 |
| S26A/D91E/F98A | 2.72 / 3.84 / 3.50 | 4 of 9 (3.51) |
| N33D/R53S/S88H | ND / 4.45 / ND | 6 of 9 (3.66) |
| K50N/P54G/D91A | 3.13 / 2.13 / 2.58 | 3 of 9 (3.50) |
| Y31R/R90F/G94L | 3.49 / 2.64 / 2.43 | 5 of 9 (3.86) |
| R53N/F98H | 3.74 / 3.33 / ND | 0 of 9 |
| D25L/Y30N/F95N | 1.19 / 1.13 / 0.77 | 2 of 9 (4.09) |
| Y29A/N33E/R53C | 4.04 / ND / ND | 5 of 9 (3.94) |
| K50F/S93P/G94N | ND / ND / ND | 0 of 9 |
| E23F/G24Y/D91W | 3.77 / ND / 4.37 | 3 of 9 (3.71) |
| S26E/Q96L | 3.59 / 3.96 / ND | 1 of 9 (3.40) |
| N33G/N52R/Q96D | ND / 3.45 / ND | 2 of 9 (4.59) |
| S88L/S89K/R90E | 4.19 / 3.01 / 2.68 | 2 of 9 (4.46) |
| G24Y/S89H/V97C | 3.79 / 5.00 / 2.90 | 1 of 9 (3.56) |

Again, the first 3 entries without any signal:

changes,"log10 Kd, replicates",control signals
P54F/R90T/G94T,ND / ND / ND,0 of 9
A32L/K50L/V97M,ND / ND / ND,1 of 9 (3.64)
S26F/N52W/D91R,ND / ND / ND,1 of 9 (3.07)

Data: MIT Lincoln Laboratory AlphaSeq set, Engelhart et al. 2022, doi:10.1038/s41597-022-01779-4, as distributed in FLAb.